Tests used:
Type in all cases: physicochemical
[1] = Multilayered coated panels, accelerated weathering: color change (ΔE); conditions: after 6000 hours Xenon Arc accelerated weathering (SAE J2527); UV absorber 2.5 wt % in 2-part polyurethane clear top coat on white base coat
Procedure: (§1) Example 10. Stabilized 2-Part Solvent-borne Polyurethane Glossy Clear Top Coat. A glossy stabilized clear top coat was prepared of the formulation below. The UV absorbers were added to the formulation at 2.5 wt % relative to total resin solids.
Example 11. Stabilized 2-Part Solvent-borne Polyurethane Glossy Clear Top Coat. A glossy stabilized clear top coat was prepared of the formulation below. The UV absorber was added at 2.5 wt % relative to total resin solids, and the hindered amine light stabilizer (HALS) was added at 1.5 wt % relative to total resin solids. […]
Example 12. […] Initial CIE Lab color values, 20 degree gloss, and 60 degree gloss were measured. […]
Initial color measurements were taken using the above parameters. The L, a, and b values were calculated using the CIE system from the reflectance values. ΔE was calculated from the L, a, and b values. Subsequent measurements were taken at specified intervals. ΔL, a, and b values were the difference between the initial values and the values at each interval. ΔE was calculated as follows: [(ΔL)^2+(Δa)^2+(Δb)^2][…]=ΔE. […]

[2] = UV absorber solubility in UV curable coating composition (Example 8); conditions: approximate maximum concentration with no sign of crystallization; coating similar to Pourreau, RadTech Report 2004, Table 5
Procedure: Example 8. UV Absorber Solubility in UV Curable Coating Compositions. To measure this solubility, a number of structurally different UV absorbers were added to a typical UV curable coating composition similar to that as described by D. B. Pourreau “UV-Curable Acrylic Urethane Clearcoats for Automotive Applications,” RadTech Report, November/December, 2004, Table 5, p. 66. The test UV absorber was added to the UV curable coating composition at various concentrations. The resulting solution was placed into individual containers and sealed. Solubility was then evaluated based upon observed crystallization in the solvent. Observations started after several hours and then continued over a period of several weeks.
The solubility values given in Table 1, below, are approximate maximum concentrations where no sign of subsequent crystallization was evident. Solubilities are reported in weight percent of total UV absorber added to UV curable coating formulation. From the data in Table 1, it is clear that the inventive triazine UV absorbers are considerably more soluble in UV curable coating formulations than other triazine UV absorbers of the prior art. The use of many UV absorbers in coatings has been limited by solubility and compatibility of some UV absorber compounds. […]

[3] = Multilayered coated panels, accelerated weathering: 20 degree gloss retention; conditions: after 3536 hours Xenon Arc accelerated weathering (SAE J2527); UV absorber 2.5 wt % in 2-part polyurethane clear top coat on white base coat
Procedure: as §1
Example 11. Stabilized 2-Part Solvent-borne Polyurethane Glossy Clear Top Coat. A glossy stabilized clear top coat was prepared of the formulation below. The UV absorber was added at 2.5 wt % relative to total resin solids, and the hindered amine light stabilizer (HALS) was added at 1.5 wt % relative to total resin solids. The HALS was a mixture of bis (1,2,2,6,6-pentamethyl-4-piperidyl) sebacate and methyl-1,2,2,6,6-pentamethyl-4-piperidyl sebacate (“HALS 1”); bis(1-octyloxy-2,2,6,6-tetramethylpiperidin-4-yl) sebacate (“HALS 2”); or 2,4-bis[(1-cyclohexyloxy-2,2,6,6-tetramethylpiperidin-4-yl)butylamino]-6-(2-hydroxyethylamino-s-triazine (“HALS 3”).
Example 12. Multilayered Coated Panel Preparation. Aluminum test panels from ACT Test Panels LLC were purchased having a white base coat (coil coat) and no clear top coat. The panels were cut to a size of about 3 inches by 6 inches. […] Initial CIE Lab color values, 20 degree gloss, and 60 degree gloss were measured. […]

Row | Substance | Delta E [1] | Solubility in UV Curable Coating [2] | 20 degree gloss retention [3]
1 | 2-[4,6-bis(2,4-dimethylphenyl)-1,3,5-triazin-2-yl]-5-[2-hydroxy-3-(2-methylbutoxy)propoxy]phenol and regioisomer [Example 3, reference compound] | 2.68 | ~2 wt % | 69.9%
2 | 2-[4,6-bis(4-phenylphenyl)-1,3,5-triazin-2-yl]-5-(2-hydroxypropoxy)phenol (“UVA-1”) and 2-[4,6-bis(4-phenylphenyl)-1,3,5-triazin-2-yl]-5-(2-hydroxy-1-methyl-ethoxy)phenol (“UVA-2”) [Example 1] | 1.70 |  | 85.2%

From US12686788B2, “Coating compositions having covalently bound ultraviolet absorbers” (BASF SE, priority 2017, dated 2026)
